CycPeptMPDB entries from one study

Collected by the curators of CycPeptMPDB (Li et al. 2023) from Townsend et al. 2020, doi:10.26434/chemrxiv.13335941.v1.

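Conditions beyond the assay type are not listed; see the original paper. Other peptides of the study may be missing here. Peptides that the database sets to -10, its floor, are left out.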

PAMPA is the parallel artificial membrane permeability assay, which has no cells and reads passive diffusion.
Permeability is given as log10 of P in cm/s; higher (less negative) is more permeable.

structure (SMILES),PAMPA (log10 cm/s)
CCCN1CC(=O)N[C@@H](CC(C)C)C(=O)N(C)[C@@H](CC(C)C)C(=O)N2CCC[C@H]2C(=O)N[C@H](CC(C)C)C(=O)N[C@@H](Cc2ccccc2)C(=O)N2CCC[C@H]2C1=O,-6.14
CC(C)C[C@H]1NC(=O)C[C@H](Cc2ccccc2)NC(=O)[C@H](Cc2ccccc2)NC(=O)CN(Cc2ccccc2)C(=O)[C@H]2CCCN2C(=O)[C@@H](CC(C)C)NC1=O,-5.82
CC(C)C[C@@H]1C(=O)N[C@@H](Cc2ccccc2)C(=O)N2CCC[C@@H]2C(=O)N[C@@H](Cc2ccccc2)CC(=O)N(Cc2ccccc2)CC(=O)N[C@@H](Cc2ccccc2)CC(=O)N2CCC[C@@H]2C(=O)N1C,-5.92
CC(C)C[C@@H]1C(=O)N[C@@H](Cc2ccccc2)C(=O)N2CCC[C@@H]2C(=O)N[C@@H](Cc2ccccc2)CC(=O)N[C@H](CC(C)C)C(=O)N(C)[C@@H](CC(C)C)C(=O)N2CCC[C@@H]2C(=O)N1C,-5.26
CC(C)C[C@@H]1NC(=O)C[C@H](Cc2ccccc2)NC(=O)[C@H](Cc2ccccc2)NC(=O)[C@@H](CC(C)C)N(C)C(=O)[C@H]2CCCN2C(=O)[C@@H](CC(C)C)NC1=O,-5.07
CCCN1CC(=O)N(C)[C@H](CC(C)C)C(=O)N(C)[C@H](CC(C)C)C(=O)N2CCC[C@@H]2C(=O)N(Cc2ccccc2)CC(=O)N[C@@H](Cc2ccccc2)C1=O,-5.70
CC(C)C[C@@H]1C(=O)N[C@@H](Cc2ccccc2)C(=O)N2CCC[C@H]2C(=O)N[C@@H](Cc2ccccc2)CC(=O)N(C)[C@@H](CC(C)C)C(=O)N(Cc2ccccc2)CC(=O)N2CCC[C@H]2C(=O)N1C,-5.61
CCCN1CC(=O)N[C@@H](CC(C)C)C(=O)N(Cc2ccccc2)CC(=O)N2CCC[C@@H]2C(=O)N(Cc2ccccc2)CC(=O)N[C@@H](Cc2ccccc2)C(=O)N2CCC[C@H]2C1=O,-6.21
CC(C)C[C@@H]1NC(=O)[C@H](C)N(C)C(=O)[C@@H]2CCCN2C(=O)[C@H](Cc2ccccc2)NC(=O)[C@H](CC(C)C)N(C)C(=O)[C@H]2CCCN2C(=O)[C@@H](CC(C)C)NC1=O,-5.47
CC(C)C[C@@H]1C(=O)N[C@H](CC(C)C)C(=O)N2CCC[C@@H]2C(=O)N[C@H](CC(C)C)C(=O)N[C@@H](Cc2ccccc2)C(=O)N[C@@H](C)C(=O)N1C,-6.67
CCCN1CC(=O)N(Cc2ccccc2)CC(=O)N(C)[C@@H](CC(C)C)C(=O)N2CCC[C@H]2C(=O)N(C)[C@@H](CC(C)C)C(=O)N[C@@H](Cc2ccccc2)C(=O)N2CCC[C@H]2C1=O,-5.21
CC(C)C[C@@H]1C(=O)N2CCC[C@H]2C(=O)N(C)[C@@H](CC(C)C)C(=O)N[C@@H](Cc2ccccc2)C(=O)N[C@H](C)C(=O)N(C)[C@@H](CC(C)C)C(=O)N1C,-5.28
CC(C)C[C@@H]1C(=O)N[C@@H](Cc2ccccc2)C(=O)N[C@H](C)C(=O)N[C@H](CC(C)C)C(=O)N(C)[C@@H](CC(C)C)C(=O)N2CCC[C@H]2C(=O)N1C,-6.49
CC(C)C[C@@H]1C(=O)N[C@H](CC(C)C)C(=O)N2CCC[C@H]2C(=O)N(C)[C@H](CC(C)C)C(=O)N[C@@H](Cc2ccccc2)C(=O)N2CCC[C@H]2C(=O)N[C@@H](C)C(=O)N1C,-5.64
CC(C)C[C@@H]1C(=O)N[C@@H](Cc2ccccc2)C(=O)N2CCC[C@H]2C(=O)N[C@@H](Cc2ccccc2)CC(=O)N(Cc2ccccc2)CC(=O)N[C@H](CC(C)C)C(=O)N2CCC[C@@H]2C(=O)N1C,-5.45
CC(C)C[C@@H]1C(=O)N[C@@H](Cc2ccccc2)C(=O)N2CCC[C@@H]2C(=O)N(C)[C@@H](C)C(=O)N(Cc2ccccc2)CC(=O)N(C)[C@@H](CC(C)C)C(=O)N2CCC[C@H]2C(=O)N1C,-5.28
CCCN1CC(=O)N(C)[C@H](CC(C)C)C(=O)N(C)[C@@H](CC(C)C)C(=O)N2CCC[C@H]2C(=O)N(Cc2ccccc2)CC(=O)N[C@@H](Cc2ccccc2)C1=O,-4.97
CCCN1CC(=O)N[C@H](CC(C)C)C(=O)N(C)[C@@H](CC(C)C)C(=O)N2CCC[C@@H]2C(=O)N[C@H](CC(C)C)C(=O)N[C@@H](Cc2ccccc2)C1=O,-5.02
CC(C)C[C@@H]1NC(=O)[C@@H](C)N(C)C(=O)[C@H](Cc2ccccc2)NC(=O)CN(Cc2ccccc2)C(=O)[C@@H]2CCCN2C(=O)C[C@H](Cc2ccccc2)NC1=O,-6.01
CC(C)C[C@@H]1NC(=O)CN(Cc2ccccc2)C(=O)[C@H](C)N(C)C(=O)[C@@H]2CCCN2C(=O)[C@H](Cc2ccccc2)NC(=O)[C@@H](CC(C)C)N(C)C(=O)[C@@H]2CCCN2C1=O,-5.64
CCCN1CC(=O)N[C@H](CC(C)C)C(=O)N[C@@H](CC(C)C)C(=O)N2CCC[C@H]2C(=O)N(C)[C@@H](CC(C)C)C(=O)N[C@@H](Cc2ccccc2)C1=O,-5.00